Test results published in ChEMBL document CHEMBL4808242, “Discovery of GNE-502 as an orally bioavailable and potent degrader for estrogen receptor positive breast cancer” (Bioorg Med Chem Lett, 2021).

By UniProt entry, the sequences of proteins in these tests, tags left out.
UniProt P03372, whole entry: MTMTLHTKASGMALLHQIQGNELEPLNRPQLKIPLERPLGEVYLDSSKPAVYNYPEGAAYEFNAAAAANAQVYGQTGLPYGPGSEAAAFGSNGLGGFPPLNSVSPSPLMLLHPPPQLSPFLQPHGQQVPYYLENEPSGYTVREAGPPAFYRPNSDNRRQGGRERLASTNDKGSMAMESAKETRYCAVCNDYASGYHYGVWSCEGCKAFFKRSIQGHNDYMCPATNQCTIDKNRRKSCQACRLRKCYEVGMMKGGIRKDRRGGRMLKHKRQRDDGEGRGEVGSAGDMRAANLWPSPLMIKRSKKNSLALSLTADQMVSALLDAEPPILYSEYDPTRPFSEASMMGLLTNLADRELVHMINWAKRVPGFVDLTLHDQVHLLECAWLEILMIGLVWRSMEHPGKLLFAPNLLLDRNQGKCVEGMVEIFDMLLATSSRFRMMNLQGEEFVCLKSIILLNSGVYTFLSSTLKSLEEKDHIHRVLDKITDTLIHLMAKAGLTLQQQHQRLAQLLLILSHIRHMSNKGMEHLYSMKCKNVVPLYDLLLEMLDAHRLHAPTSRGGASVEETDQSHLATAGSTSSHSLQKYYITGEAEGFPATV

Target: Estrogen receptor (Homo sapiens, UniProt P03372)
Test: Induction of ERalpha degradation in human MCF7 cells assessed as maximum degradation by immunofluorescence assay relative to control
Format: cell-based

- %max: 95%
Structure (SMILES): C[C@@H]1Cc2c([nH]c3ccccc23)[C@@H](c2c(F)cc(OCCN3CC(CF)C3)cc2F)N1CC(C)(C)F
